Ab-14 light chain CDR variants: yeast mating affinities

All variants were tested on one target, the spike HR2 peptide PDVDLGDISGINAS (SARS-CoV-2).

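Phage display of a naive human antibody library on the peptide gave the parent. The library (AAYL50) carries one to three amino acid substitutions per variant, with no insertions or deletions. The scFvs were displayed on barcoded MATa yeast, the peptide on MATalpha yeast. Binding brings cells together so that they mate, and sequencing counts the barcode pairs among the diploids. The ratio of observed to expected reads was calibrated, replicate by replicate, on BCL2-family standards whose Kd was known from biolayer interferometry. There are three technical replicates.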

Parent: Ab-14, a human scFv built as VH, three GGGGS repeats, VL. Only the CDRs of the light chain vary.
VH: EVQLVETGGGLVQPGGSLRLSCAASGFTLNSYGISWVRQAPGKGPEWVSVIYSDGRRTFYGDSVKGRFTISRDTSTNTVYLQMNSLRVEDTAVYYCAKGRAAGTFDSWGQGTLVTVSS
VL: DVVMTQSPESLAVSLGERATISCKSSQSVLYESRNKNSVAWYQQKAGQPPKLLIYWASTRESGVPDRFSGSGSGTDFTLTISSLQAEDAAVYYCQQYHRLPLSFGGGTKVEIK

Each variant is given by its three light chain CDRs, as the data file delimits them; those of the parent are KSSQSVLYESRNKNSVA, WASTRES, QQYHRLPLS. Values are log10 of the apparent Kd in nM; lower means stronger binding. An entry "nd" has no value in the source: the pair was not observed among the diploids in that replicate. This suggests poor binding but is not conclusive. Nonspecific signal, from three strains lacking the peptide, appeared in 18% of pairings of library AAYL50, centred on 4.19 (5% of these signals below 2.99); values are not corrected for it. The control count says in how many pairings with the empty strains this scFv gave a signal, with their mean in brackets.

CDR-L1	CDR-L2	CDR-L3	replicates, log10 nM	signal with controls
KSSQSVLYESRNKNSVA	WASGCES	QQYHRSPLS	nd / nd / nd	0/9
KSSQMVLYESRNKNSVA	WASTRES	QNYHALPLS	0.86 / 1.20 / 0.96	0/9
KSSQHVLVESRLKNSVA	WASTRES	QQYHRLPLS	3.11 / 3.05 / 3.08	5/9 (4.00)
KSWQSVLYESRNKSSVA	WASTRES	QQYHRLPLS	2.87 / 2.51 / 2.64	7/9 (4.13)
KSSQSVLYESRNKNSVA	WASTRES	QCKHRLPLS	nd / nd / nd	0/9
KSSQSVLYEARNKNSVA	WASTCAS	QQYHRLPLS	3.01 / 2.73 / 2.67	1/9 (4.21)
KSSQSVLYESFNKNVKA	WASTRES	QQYHRLPLS	nd / nd / nd	0/9
KTSQSVLYESRNKNSVK	WASTRES	QSYHRLPLS	nd / 4.31 / 4.15	1/9 (4.60)
KSSQSVLYESRNKNSVA	WASYRES	QQYHFLNLS	1.09 / 1.18 / 1.22	6/9 (4.30)
KSSQSVLYTSRNKNSVA	WAWTRES	MQYHRLPLS	nd / 5.15 / 4.76	3/9 (4.70)
KSHQSVLYESRNKNSIA	WASTRES	QQYHRKPLS	nd / nd / nd	0/9
KSSQSVLYESRNKNSVI	WASTAES	KQYHRLPLS	nd / 4.12 / nd	2/9 (3.59)
KSSQSCLYESRNKNSPA	WASTRNS	QQYHRLPLS	nd / nd / nd	0/9
KMSQSVLYESRLKNSVA	WASTRES	QQYHRPPLS	4.22 / nd / 6.02	1/9 (3.58)
GSSQSVLYERRNKNDVA	WASTRES	QQYHRLPLS	nd / nd / nd	0/9
KSSQSVLYEARNKNSVA	WAQTRES	QQYHRLPLS	1.37 / 1.51 / 1.64	1/9 (5.28)
CSCQSVLYESRNKNSAA	WASTRES	QQYHRLPLS	nd / nd / nd	1/9 (3.10)
KWSQSVCYEARNKNSVA	WASTRES	QQYHRLPLS	1.51 / 1.64 / 1.07	1/9 (3.12)
KSSQKVCYESRNKNSVA	WASTRES	QQYHRLSLS	4.79 / 3.33 / 4.56	3/9 (4.33)
KSSQSVLYESRNKNSVA	WDSTRYS	QQVHRLPLS	nd / nd / nd	1/9 (3.45)
KSSPSVLYKSRNKNSVA	WASKRES	QQYHRLPLS	2.62 / 2.59 / 2.66	4/9 (4.16)
KSSQSVLTESRNKNSVL	WASTRES	QQYHRLPIS	nd / 4.26 / nd	2/9 (5.00)
KSSQSVLLESCNKNSVH	WASTRES	QQYHRLPLS	nd / nd / nd	2/9 (4.49)
CSSQSVLFESRNKNSVA	WASTRES	QQYHRLPLS	2.31 / 2.08 / 2.01	1/9 (3.73)
LSSQSVLYESRNCNSVA	WKSTRES	QQYHRLPLS	nd / 3.95 / 3.82	3/9 (4.55)
KSSQSIIYESRNKNSVA	WASTKES	QQYHRLPLS	2.61 / 2.00 / 2.23	2/9 (4.06)
KSSQSVLYESRNKNSVA	WASSGES	QQYHRLDLS	1.18 / 1.11 / 1.04	1/9 (3.03)
KSSQSHLYESRNKNSVA	WASTRES	QDYHRLPLS	0.60 / 0.88 / 0.91	3/9 (4.71)
HSSQSVPWESRNKNSVA	WASTRES	QQYHRLPLS	2.53 / 2.49 / 1.92	0/9
MSSQSVLYESRNKNSVA	WASTRES	QAYHRLPLP	nd / nd / nd	0/9
KSSQSVLYESRNKNSFY	WISTRES	QQYHRLPLS	3.53 / nd / nd	0/9
KSSSSVLYESRNKNSVA	FAFTRES	QQYHRLPLS	nd / nd / nd	0/9

The first 4 variants above that were never detected:

{"CDR-L1": "KSSQSVLYESRNKNSVA", "CDR-L2": "WASGCES", "CDR-L3": "QQYHRSPLS", "replicates, log10 nM": "nd / nd / nd", "signal with controls": "0/9"}
{"CDR-L1": "KSSQSVLYESRNKNSVA", "CDR-L2": "WASTRES", "CDR-L3": "QCKHRLPLS", "replicates, log10 nM": "nd / nd / nd", "signal with controls": "0/9"}
{"CDR-L1": "KSSQSVLYESFNKNVKA", "CDR-L2": "WASTRES", "CDR-L3": "QQYHRLPLS", "replicates, log10 nM": "nd / nd / nd", "signal with controls": "0/9"}
{"CDR-L1": "KSHQSVLYESRNKNSIA", "CDR-L2": "WASTRES", "CDR-L3": "QQYHRKPLS", "replicates, log10 nM": "nd / nd / nd", "signal with controls": "0/9"}

In this assay the parent's reference entry averaged 0.65; its copy inside this library read 1.68.

Values reported by Engelhart et al. 2022, doi:10.1038/s41597-022-01779-4 (FLAb copy).